# Reference: patent publication US9757358B2 (priority 2010, dated 2017)
# Test system: post-operative pain in rats (mechanical allodynia)
# Conditions: given 3.5 h after surgery
compound,measurement,setting,value
"Cc1cc(OCCN2CCOCC2)nn1-c1ccc2ccccc2c1 [compound 63, 4-{2-[5-Methyl-1-(naphthalen-2-yl)-1H-pyrazol-3-yloxy]ethyl}morpholine]",effect on remifentanil analgesia,"compound 63 2.5, 5, 10, 20, 40, 80 mg/kg + remifentanil 0.01 mg/kg",enhances remifentanil analgesia
same,effect on sufentanil analgesia,"compound 63 5, 10, 20, 40 mg/kg + sufentanil 0.003 mg/kg",enhances sufentanil analgesia
same,effect on fentanyl analgesia,"compound 63 10, 20, 40, 80 mg/kg + fentanyl 0.01 mg/kg",enhances fentanyl analgesia
